# Source: PubChem BioAssay AID2472 (National Center for Advancing Translational Sciences (NCATS), 2010)
# Only a part is listed here, and it is no random draw. Some tests of the compounds listed are not included; inactive here does not mean inactive elsewhere. Active and inactive are the calls of the source. Cut-off read from the data, not from the text of the source: active = activity change below about -30%; inactive = the rest, inconclusive results apart.
# Test: qHTS Assay for Inhibitors of Fructose-1,6-bisphosphate Aldolase from Giardia Lamblia: Coupling assay counterscreen
# Conditions: coupling enzyme system counterscreen, AmpLite Red fluorescence; at 58.2 µM (top of the series)
# Description: MLPCN Grant: MH085699-01 Assay Provider: Osnat Herzberg, University of Maryland NCGC Assay Overview: The objective of this project is to obtain compounds that inhibit Giardia lamblia growth. G. lamblia is a human pathogen which afflicts impoverished nations; it is the most common cause of outbreaks of diarrhea in the United States. During the course of our study of potential drug targets in Giardia, we have identified the Class II (Zn2+ functions in electrophilic catalysis) fructose-1,6-bisphosphate aldolase (FBPA) as an excellent candidate for drug targeting. FBPA is a key glycolytic pathway enzyme, essential for G. lamblia survival. The human FBPA belongs to the Class I aldolases, which have a different substrate binding site structure and a radically different catalytic mechanism (employing a lysine-Schiff base intermediate). Therefore, affinity-based or mechanism-based inhibitors of the Giardia FBPA are expected not to interfere with the catalytic function of the human FBPA. A glyceraldehyde-3-phosphate dehydrogenase/triose phosphate isomerase/NAD/arsenate coupled assay was adapted to the 1536-well HTP format for use in the primary screen. This was done by coupling it to a diaphorase/resazurin/resorufin reaction that can be monitored by fluorescence (excitation, 544 nm; emission, 590 nm). Compounds identified in this screen will be further evaluated by coupling the […]/triose phosphate isomerase/NADH assay to a phenazine methosulfate/tetranitroblue tetrazolium color reaction. False positives due to the dehydrogenases and diaphorase inhibition will be eliminated, and selectivity assay will triage inhibitors of mammalian triose phosphate isomerase and the Class I FBPA. G. lamblia FBPA inhibitors identified by the in vitro analyses will be examined for growth inhibition of Giardia trophozoites, and for cytotoxicity in human cells. This assay specifically addresses whether activity observed in the primary screen (AID 2451) is related to inhibition of the coupling assay used, as opposed to inhibition of aldolase. Actives in this assay are considered inconclusive for activity against aldolase.
# NCGC Assay Protocol: Step,Parameter,Value,Description 1,Coupling enzyme reagent,2 uL,glyceraldehyde-3-phosphate 2,Compound,23 nL,3.68 nM-57.5 uM final concentration 3,Time,10 min,RT Incubation 4,Substrate/detection Reagent,2 uL,Substrate + enzyme coupling system + AmpLite Red kit 5,Time,20 min,RT Incubation 6,Detector,525 nm/598 nm (Fluorescence),ViewLux Fluorescence Read (Read 1) Notes: 1,Medium-binding black solid-bottom Kalypsys plates. FRD or Kalypsys dispenser. 2,Compound Library (10 mM ,1:5 dilution). Pin-transferred for a [final] range of 3.68 nM-57.5 uM. 3,RT incubation 4,FRD or Kalypsys dispenser, 2 uL of reaction mixture. Bottle kept at 4C and covered in foil to protect from light. 5,RT incubation 6,ViewLux Protocol 1194; Excitation filter wheel A (525/20 Pol; BODIPY TMR FP), Emission filter wheel B (598/25 S; BODIPY TMR FP S). Keywords: Fructose-bisphosphate aldolase, FBPA , Giardia lamblia , Giardia, HTS, Inhibitors
# % is set by controls: 0 for no effect and ±100 for the full control effect.
row,SMILES,"activity change, negative = inhibition"
1,CN1[C@@H]2CC[C@H]1CC(OC(=O)C(O)(c1ccccc1)c1ccccc1)C2 (some centres undefined),inactive: 2.08%
2,O=C(NCC1(N2CCCCC2)CCCCC1)c1cc([N+](=O)[O-])ccc1Cl,inactive: -0.979%
3,Cc1ccc(C(=O)NCC2(N3CCCCC3)CCCCC2)cc1,inactive: 0.931%
4,CC(C)N1C(=O)CC2(CCN(CCOC(=O)C(O)(c3ccccc3)c3ccccc3)CC2)C1=O,inactive: 1.3%
5,COc1cc(SC)ccc1C(=O)NCC1(N(C)C)CCCCC1,inactive: 1.64%
6,CCN(CC)CC(C)C(C)OC(=O)C(O)(c1ccccc1)c1ccccc1 (centres undefined),inactive: -0.306%
7,CN(C)c1ccc(C(=O)NCC2(N(C)C)CCCCC2)cc1,inactive: 0.29%
8,CN(C)C1CCCC1OC(=O)C(O)(c1ccccc1)c1ccccc1 (centres undefined),inactive: 1.73%
9,Cc1ccccc1C(=O)NCC1(N2CCCCC2)CCCCC1,inactive: 0.24%
10,O=C(NCC1(N2CCCCC2)CCCCC1)c1cccc(Br)c1,inactive: 3.82%
11,CCN1CCCC(OC(=O)C2(O)c3ccccc3C=Cc3ccccc32)C1 (centres undefined),inactive: -1.44%
12,Cc1cc(C(=O)NCC2(N3CCCCC3)CCCCC2)ccc1[N+](=O)[O-],inactive: 2.21%
13,COc1ccc(C(=O)NCC2(N(C)C)CCCCC2)cc1,inactive: 9.86%
14,O=C(NCC1(N2CCCCC2)CCCCC1)c1cc(F)c(F)cc1Cl,inactive: 6.28%
15,C=CCN1CCN(CCOC(=O)C(O)(c2ccccc2)c2ccccc2)CC1,inactive: 3.08%
16,COc1cc(C(=O)NCC2(N(C)C)CCCCC2)c([N+](=O)[O-])cc1OC,inactive: 0.137%
17,CN(C)C1(CNC(=O)c2ccc(Br)cc2)CCCCC1,inactive: 3.18%
18,O=C(NCC1(N2CCCCC2)CCCCC1)c1cccc(Cl)c1,inactive: -0.427%
19,COc1ccc(Cl)cc1C(=O)NCC1(N(C)C)CCCCC1,inactive: 0.258%
20,COc1cccc(C(=O)NCC2(N3CCCCC3)CCCCC2)c1,inactive: 0.613%
21,O=C(OC1CN2CCC1CC2)C(CO)(c1ccccc1)c1ccccc1 (centres undefined),inactive: 4.72%
22,CN(C)c1cccc(C(=O)NCC2(N(C)C)CCCCC2)c1,inactive: -0.387%
23,CC(C)Oc1ccc(C(=O)NCC2(N(C)C)CCCCC2)cc1,inactive: 0.132%
24,COc1ccc(Br)c(C(=O)NCC2(N3CCCCC3)CCCCC2)c1,inactive: -0.891%
